Our source for the inhibition values is PubChem BioAssay AID651704 (Broad Institute, 2012).

Chains of the proteins cited; added tags and fusions are not shown. Lines headed by an entry give the natural chain unless they say otherwise; changes in a name come on top.
UniProt P42568: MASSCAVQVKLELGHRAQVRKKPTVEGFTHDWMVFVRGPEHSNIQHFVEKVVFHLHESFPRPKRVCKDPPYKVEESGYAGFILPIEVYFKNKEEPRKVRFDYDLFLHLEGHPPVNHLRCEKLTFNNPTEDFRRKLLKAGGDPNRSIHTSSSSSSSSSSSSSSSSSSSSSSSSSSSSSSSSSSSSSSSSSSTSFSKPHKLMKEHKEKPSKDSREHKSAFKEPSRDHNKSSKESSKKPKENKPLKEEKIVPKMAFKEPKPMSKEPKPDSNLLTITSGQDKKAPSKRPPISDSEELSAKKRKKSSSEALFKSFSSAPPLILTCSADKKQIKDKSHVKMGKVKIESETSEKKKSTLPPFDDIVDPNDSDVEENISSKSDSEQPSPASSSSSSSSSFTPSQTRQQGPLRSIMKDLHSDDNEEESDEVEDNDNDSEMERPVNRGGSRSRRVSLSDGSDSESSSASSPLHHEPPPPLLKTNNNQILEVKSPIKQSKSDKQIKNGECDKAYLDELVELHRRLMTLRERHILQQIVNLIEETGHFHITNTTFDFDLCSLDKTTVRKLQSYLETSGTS

The list shows a part of the results, in another mix than the full data. Calls of active or inactive are those of the source.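 How the source made its calls: active means every replicate reaching a set inhibition limit, whatever the replicate mean (cut at about 25% in these data); inconclusive means mean inhibition reaches that limit but some replicates miss it; inactive means the rest.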

For orientation: inhibition means the drop in the measured response relative to a control, in per cent.

The assay has as its target Protein AF-9 (Homo sapiens) (UniProt P42568). Description: inhibitors of AF4 peptide binding to AF9, primary screen, biochemical, AlphaScreen, biotin-AF4 peptide, FLAG-AF9, single point (AID 651704).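 Further: 0% = plate neutral control median and 100% = total signal loss.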 To be noted: at 10 µM, active compounds read high.
In the case of `C[N+]1=C2C=CC=CC=C2SC12C([N+](=O)[O-])=CC([N+](=O)[O-])=C[C-]2[N+](=O)[O-]` (stereo unspecified), the inhibition is active: 27.2%.
